According to PubChem BioAssay AID743255 (National Center for Advancing Translational Sciences (NCATS), 2014):
Only a part is listed here, and it is no random draw. Results filed as inconclusive are left out. Calls of active or inactive are those of the source. The call rests on the fitted dose curve; in most records, active means well fitted inhibition curve with a large enough effect; inconclusive means small, poorly fitted or top-dose-only effect; inactive means no such curve, though single readings can be large or run the other way.

Sequences of proteins named here, by UniProt entry; tags and fusion partners are left off.
UniProt O94782, whole entry, looked up: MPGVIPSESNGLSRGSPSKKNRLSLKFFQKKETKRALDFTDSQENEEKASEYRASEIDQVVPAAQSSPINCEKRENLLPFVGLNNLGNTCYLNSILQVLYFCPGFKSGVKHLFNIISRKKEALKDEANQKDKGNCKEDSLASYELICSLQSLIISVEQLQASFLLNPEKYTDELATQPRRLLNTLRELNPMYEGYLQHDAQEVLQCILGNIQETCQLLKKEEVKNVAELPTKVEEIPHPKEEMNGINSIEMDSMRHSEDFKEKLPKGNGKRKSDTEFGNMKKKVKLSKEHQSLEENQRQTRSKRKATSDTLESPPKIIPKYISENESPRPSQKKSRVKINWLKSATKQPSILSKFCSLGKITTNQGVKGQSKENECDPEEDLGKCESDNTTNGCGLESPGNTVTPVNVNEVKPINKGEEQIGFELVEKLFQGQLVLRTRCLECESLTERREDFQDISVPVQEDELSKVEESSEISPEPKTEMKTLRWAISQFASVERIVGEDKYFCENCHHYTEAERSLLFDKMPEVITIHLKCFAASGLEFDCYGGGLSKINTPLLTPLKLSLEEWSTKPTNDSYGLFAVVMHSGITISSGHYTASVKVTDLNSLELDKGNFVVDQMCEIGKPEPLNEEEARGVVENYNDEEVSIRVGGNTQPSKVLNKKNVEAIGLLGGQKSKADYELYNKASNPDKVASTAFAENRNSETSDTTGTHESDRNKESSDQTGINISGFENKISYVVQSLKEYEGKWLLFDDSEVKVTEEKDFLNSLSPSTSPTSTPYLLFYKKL

These compounds were tested against Ubiquitin carboxyl-terminal hydrolase 1 (Homo sapiens) (UniProt O94782) (assay: Inhibitors of USP1/UAF1: Primary Screen). Conditions: recombinant USP1/UAF1, Ub-Rhodamine cleavage fluorescence; at 57.1 µM (top of the series).
Source text: Deubiquitinating enzymes (DUBs) are a class of enzymes that can cleave isopeptide bond formed between the C-terminal carboxylate of ubiquitin and a lysine side-chain amino group on the target protein. Among them, ubiquitin specific proteases (USPs) constitute the largest DUB family. Human USPs are emerging as promising targets for pharmacological intervention because of their connection to a number of human diseases, including prostate, colon and breast cancer (1, 2), pediatric acute lymphoblastic leukemia (3), and familial cylindromatosis (4). The advantage of inhibiting USPs lies in the potential specificity of therapeutic intervention that can lead to better efficacy and reduce nonspecific side effects. […] This miniaturized assay has a fluorescent read-out and is used to screen the NIH Molecular Libraries Small Molecule Repository (MLSMR) in order to identify a small molecule that inhibits USP1. […]
3 microliters of reagents (buffer in columns 3 and 4 as negative control and 1nM USP1/UAF1 complex in columns 1, 2, and 5-48) are dispensed into Greiner black solid bottom 1536-well assay plates. […] The plates are immediately centrifuged at 1000 rpm for 15 seconds, and subsequently transferred to a ViewLux high-throughput CCD imager (PerkinElmer) wherein kinetic measurements of fluorescence are acquired using 480 nm excitation/540 nm emission filter set (6 reads every 60 seconds, see Table 1). […]
Further: nearly all actives have a fitted effect of over 60% in size.
On the % scale 0 is the no-effect control and ±100 the full control effect.

Compound	activity change, negative = inhibition
CCC(=O)N(c1ccccc1)C1(COC)CCN(CCn2nnn(CC)c2=O)CC1	inactive: -23.2%
CCC(=O)N(c1ccccc1)C1(COC)CCN(CCc2cccs2)CC1	inactive: -13.9%
